Results published in patent US10787419B2, “Cannabinoid receptor mediating iminopyrazole compounds” (The United States of America, as represented by the …, priority 2012, dated 2020).

Key:
DIO mice = assay: mice with diet-induced obesity (DIO) treated orally for 14 days; assay type: in vivo; conditions: 10 mg/kg/day oral
CB1 [1] = biological target: T1, CB1 (Mus musculus (Mouse), UniProt P47746)
CB1 [2] = biological target: T1, CB1; assay: radioligand displacement assay in mouse brain membranes (Ki CB1); assay type: binding
[3] = tissue levels in brain and plasma after administration to mice; conditions: 1 hour after administration of 10 mg/kg to mice

| Structure (SMILES) | body weight reduction relative to vehicle-treated DIO mice (DIO mice) | Functional GTPγS binding CB1 Emax (CB1 [1]) | IC50 (CB1 [1]; read-out: Functional GTPγS binding CB1 IC50) | Ki (CB1 [2]; Table 1, read-out: Ki CB1) | Ki (CB1 [2]; Table 2, read-out: Ki CB1) | brain tissue level relative to plasma level [3] | Ki (CB1 [2]; radioligand displacement, mouse brain membranes, read-out: Ki) |
| --- | --- | --- | --- | --- | --- | --- | --- |
| CC(=N)N/C(=N\S(=O)(=O)c1ccc(Cl)cc1)N1CC(c2ccccc2)C(c2ccc(Cl)cc2)=N1 (racemic) [Compound 2, 3-(4-chlorophenyl)-N′-((4-chlorophenyl)sulfonyl)-N-(1-iminoethyl)-4-phenyl-4,5-dihydro-1H-pyrazole-1-carboximidamine] | ~10% | −20 % basal | 50 nM | 18 nM | 18 nM |  |  |
| CC(=N)N/C(=N\S(=O)(=O)c1ccc(Cl)cc1)N1C[C@H](c2ccccc2)C(c2ccc(Cl)cc2)=N1 [Compound 2E1] |  |  |  | 9 nM | 9 nM | < 2 % of plasma level | 9 nM |
| CC(=N)N/C(=N\S(=O)(=O)c1ccc(Cl)cc1)N1C[C@@H](c2ccccc2)C(c2ccc(Cl)cc2)=N1 [Compound 2E2] |  |  |  | 48 nM | 182 nM |  |  |

Where two headings read alike, the source gives them in different places.
